Data on 27 compounds can be found in ChEMBL document CHEMBL2218924, “A broad activity screen in support of a chemogenomic map for kinase signalling research and drug discovery” (Biochem J, 2013).

Each structure is given as a SMILES string. Only a part is listed here, and it is no random draw.

The target in the first experiment is Epidermal growth factor receptor (Homo sapiens) (UniProt P00533). Conditions: at 1 µM; call rule not given here.
Take `CNc1cc2c(Nc3cccc(Br)c3)ncnc2cn1`: the residual activity (usually the signal under treatment as a percentage of the control signal) was -2%.

Consider `O=C1NC(=O)c2c1c1c3ccccc3[nH]c1c1[nH]c3cc(Br)ccc3c21`, for which the residual activity stood at 8%.

Consider `COc1ccc(OC)c2c(=S)c3ccccc3[nH]c12`, for which the residual activity is 71%.

Consider `Oc1n[nH]c2nnc(-c3c(-c4ccccc4)nn4ccccc34)cc12`, for which the residual activity is 100%.

Turning to `O=C(Nc1nc2ccccc2n1CCN1CCOCC1)c1cccc([N+](=O)[O-])c1`, the residual activity came to 111%.

Regarding `Nc1n[nH]c2nnc(-c3c(-c4ccccc4)nn4ccccc34)cc12`, the residual activity was determined as 87%.

In the case of `Cc1nc2cc3nc(-c4cccs4)cnc3cc2n1C`, the residual activity is 108%.

On to `O=C(O)/C=C/c1cc(Br)c(Br)c(Br)c1Br`, for which the residual activity was determined as 25%.

Consider `N#C/C(=C(\N)Sc1ccc(N)cc1)c1ccccc1C(F)(F)F`, for which the residual activity is 112%.

Regarding `CN(C)c1ccc(/C=C2\C(=O)Nc3ccccc32)cc1`, the residual activity came out at 112%.

Regarding `O=C1c2ccccc2-[n+]2ccc3c([nH]c4ccccc43)c21`, the residual activity was 9%.

`Oc1ccc(Nc2nc(-c3ccc(Cl)cc3)cs2)cc1`: the residual activity worked out at 108%.

With `Nc1ccc2ncnc(NCCc3ccc(Oc4ccccc4)cc3)c2c1`, the residual activity stood at 99%.

As to `CC(=O)O/N=C1\C(=C2\C(=O)Nc3cc(Br)ccc32)Nc2ccccc21`, the residual activity amounted to 102%.

Turning to `CC(C)n1cnc2/c(=N/c3cccc(Cl)c3)nc(NCCO)[nH]c21`, the residual activity was 98%.

The target is the same in a further experiment. Conditions: at 10 µM.
With `CNc1cc2c(Nc3cccc(Br)c3)ncnc2cn1`, the residual activity was -3%.

Take `O=C1NC(=O)c2c1c1c3ccccc3[nH]c1c1[nH]c3cc(Br)ccc3c21`: the residual activity is 9%.

Regarding `Oc1n[nH]c2nnc(-c3c(-c4ccccc4)nn4ccccc34)cc12`, the residual activity was found to be 61%.

For `O=C(Nc1nc2ccccc2n1CCN1CCOCC1)c1cccc([N+](=O)[O-])c1`, the residual activity is 109%.

On to `Cc1nc2cc3nc(-c4cccs4)cnc3cc2n1C`, for which the residual activity was 108%.

As for `CC(C)c1nn(-c2c(Cl)cccc2Cl)c2nc(Cc3ccc(OCCO)cc3)[nH]c(=O)c12`, the residual activity turned out to be 103%.

Take `COc1ccc(Cl)cc1NC(=O)Nc1cc(C)nc2ccccc12`: the residual activity amounted to 91%.

`Nc1ncnc2c1cnn2-c1ccccc1`: the residual activity worked out at 71%.

On to `N#C/C(=C(\N)Sc1ccc(N)cc1)c1ccccc1C(F)(F)F`, for which the residual activity turned out to be 113%.

As to `CSc1nc(-c2ccc(F)cc2)c(-c2ccnc(NC(C)c3ccccc3)c2)[nH]1` (stereo unspecified), the residual activity is 83%.

As for `O=C1c2ccccc2-[n+]2ccc3c([nH]c4ccccc43)c21`, the residual activity came to 0%.

In the case of `Oc1ccc(Nc2nc(-c3ccc(Cl)cc3)cs2)cc1`, the residual activity was determined as 105%.

For the compound `COc1cc2ncnc(Nc3ccc(NC(=O)c4ccccc4)cc3)c2cc1OC`, the residual activity was found to be 27%.

For `Cc1cncc2cccc(S(=O)(=O)N3CCCN(C(=O)CN)C[C@H]3C)c12`, the residual activity is 91%.

Turning to `COc1ccc(C(=O)Nc2sc3c(c2C(N)=O)CCCC3)cc1OC`, the residual activity was 104%.

With `CC(=O)O/N=C1\C(=C2\C(=O)Nc3cc(Br)ccc32)Nc2ccccc21`, the residual activity was found to be 94%.

In the case of `CC(C)n1cnc2/c(=N/c3cccc(Cl)c3)nc(NCCO)[nH]c21`, the residual activity worked out at 101%.

A further experiment deals with T1, Eukaryotic elongation factor 2 kinase (Homo sapiens) (UniProt O00418).
T1 sequence (whole entry): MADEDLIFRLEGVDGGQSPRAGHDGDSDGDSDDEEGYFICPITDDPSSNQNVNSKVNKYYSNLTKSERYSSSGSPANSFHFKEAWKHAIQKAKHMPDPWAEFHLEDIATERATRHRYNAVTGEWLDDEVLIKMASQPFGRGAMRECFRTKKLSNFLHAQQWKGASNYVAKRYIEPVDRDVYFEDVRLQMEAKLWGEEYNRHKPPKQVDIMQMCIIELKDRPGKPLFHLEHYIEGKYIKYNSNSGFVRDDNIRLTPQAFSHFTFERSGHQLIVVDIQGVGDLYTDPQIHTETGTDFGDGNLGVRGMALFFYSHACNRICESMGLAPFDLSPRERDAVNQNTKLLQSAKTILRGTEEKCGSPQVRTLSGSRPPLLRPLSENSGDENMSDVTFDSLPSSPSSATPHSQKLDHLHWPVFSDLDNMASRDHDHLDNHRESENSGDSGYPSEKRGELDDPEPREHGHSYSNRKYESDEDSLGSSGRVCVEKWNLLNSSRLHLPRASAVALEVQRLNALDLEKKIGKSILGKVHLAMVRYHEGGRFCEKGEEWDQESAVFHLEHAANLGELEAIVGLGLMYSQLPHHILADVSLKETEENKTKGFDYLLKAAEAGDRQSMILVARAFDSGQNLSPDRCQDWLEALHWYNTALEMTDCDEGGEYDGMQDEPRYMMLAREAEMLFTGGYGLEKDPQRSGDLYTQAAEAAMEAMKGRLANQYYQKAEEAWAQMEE
Conditions: at 1 µM.
Regarding `CNc1cc2c(Nc3cccc(Br)c3)ncnc2cn1`, the residual activity was inactive: 100%.

`O=C1NC(=O)c2c1c1c3ccccc3[nH]c1c1[nH]c3cc(Br)ccc3c21`: the residual activity was inactive: 90%.

For the compound `COc1ccc(OC)c2c(=S)c3ccccc3[nH]c12`, the residual activity was inactive: 98%.

For `Oc1n[nH]c2nnc(-c3c(-c4ccccc4)nn4ccccc34)cc12`, the residual activity was inactive: 110%.

Consider `O=C(Nc1nc2ccccc2n1CCN1CCOCC1)c1cccc([N+](=O)[O-])c1`, for which the residual activity is inactive: 101%.

In the case of `COc1cc2ncc(-c3ccccc3)nc2cc1OC`, the residual activity was inactive: 82%.

For the compound `Nc1n[nH]c2nnc(-c3c(-c4ccccc4)nn4ccccc34)cc12`, the residual activity was inactive: 112%.

Turning to `Cc1nc2cc3nc(-c4cccs4)cnc3cc2n1C`, the residual activity was inactive: 102%.

As to `O=C(c1ccccc1)c1ccc(N2CCOCC2)cc1O`, the residual activity was inactive: 91%.

Take `CC(C)c1nn(-c2c(Cl)cccc2Cl)c2nc(Cc3ccc(OCCO)cc3)[nH]c(=O)c12`: the residual activity is inactive: 99%.

For the compound `N#C/C(=C(\N)Sc1ccc(N)cc1)c1ccccc1C(F)(F)F`, the residual activity is inactive: 81%.

Consider `Oc1ccc(-c2nc(-c3ccc(F)cc3)c(-c3ccncc3)[nH]2)cc1`, for which the residual activity is inactive: 109%.

In the case of `CN(C)c1ccc(/C=C2\C(=O)Nc3ccccc32)cc1`, the residual activity is inactive: 90%.

Turning to `O=C1c2ccccc2-[n+]2ccc3c([nH]c4ccccc43)c21`, the residual activity is inactive: 99%.

For the compound `Oc1ccc(Nc2nc(-c3ccc(Cl)cc3)cs2)cc1`, the residual activity is inactive: 96%.

On to `Nc1ccc2ncnc(NCCc3ccc(Oc4ccccc4)cc3)c2c1`, for which the residual activity was inactive: 97%.

`COc1cc2ncnc(Nc3cccc(Cl)c3)c2cc1OC`: the residual activity is inactive: 85%.

For the compound `Nc1ncnc2[nH]nc(Nc3ccc(F)cc3)c12`, the residual activity was inactive: 100%.

For `COc1ccc(C(=O)Nc2sc3c(c2C(N)=O)CCCC3)cc1OC`, the residual activity was inactive: 83%.

As to `CC(=O)O/N=C1\C(=C2\C(=O)Nc3cc(Br)ccc32)Nc2ccccc21`, the residual activity was inactive: 100%.

Regarding `CC(C)n1cnc2/c(=N/c3cccc(Cl)c3)nc(NCCO)[nH]c21`, the residual activity is inactive: 95%.

A further experiment concerns the target T1, Eukaryotic elongation factor 2 kinase (Homo sapiens). Conditions: at 10 µM.
Regarding `CNc1cc2c(Nc3cccc(Br)c3)ncnc2cn1`, the residual activity was 84%.

For `O=C1NC(=O)c2c1c1c3ccccc3[nH]c1c1[nH]c3cc(Br)ccc3c21`, the residual activity turned out to be 103%.

In the case of `COc1ccc(OC)c2c(=S)c3ccccc3[nH]c12`, the residual activity turned out to be 95%.

With `Oc1n[nH]c2nnc(-c3c(-c4ccccc4)nn4ccccc34)cc12`, the residual activity was 90%.

For the compound `O=C(Nc1nc2ccccc2n1CCN1CCOCC1)c1cccc([N+](=O)[O-])c1`, the residual activity was determined as 84%.

Take `Nc1n[nH]c2nnc(-c3c(-c4ccccc4)nn4ccccc34)cc12`: the residual activity is 89%.

Turning to `Cc1nc2cc3nc(-c4cccs4)cnc3cc2n1C`, the residual activity came to 110%.

On to `O=C(O)/C=C/c1cc(Br)c(Br)c(Br)c1Br`, for which the residual activity came to 86%.

As to `CC(C)c1nn(-c2c(Cl)cccc2Cl)c2nc(Cc3ccc(OCCO)cc3)[nH]c(=O)c12`, the residual activity was 107%.

Turning to `N#C/C(=C(\N)Sc1ccc(N)cc1)c1ccccc1C(F)(F)F`, the residual activity was determined as 82%.

As for `Oc1ccc(-c2nc(-c3ccc(F)cc3)c(-c3ccncc3)[nH]2)cc1`, the residual activity was found to be 106%.

As to `CN(C)c1ccc(/C=C2\C(=O)Nc3ccccc32)cc1`, the residual activity was 96%.

Consider `O=C1c2ccccc2-[n+]2ccc3c([nH]c4ccccc43)c21`, for which the residual activity amounted to 95%.

As to `Oc1ccc(Nc2nc(-c3ccc(Cl)cc3)cs2)cc1`, the residual activity is 143%.

In the case of `Nc1ccc2ncnc(NCCc3ccc(Oc4ccccc4)cc3)c2c1`, the residual activity is 101%.

Regarding `COc1ccc(C(=O)Nc2sc3c(c2C(N)=O)CCCC3)cc1OC`, the residual activity came to 105%.

Take `CC(=O)O/N=C1\C(=C2\C(=O)Nc3cc(Br)ccc32)Nc2ccccc21`: the residual activity was found to be 81%.

On to `CC(C)n1cnc2/c(=N/c3cccc(Cl)c3)nc(NCCO)[nH]c21`, for which the residual activity came to 106%.
